Target: cGMP-dependent 3',5'-cyclic phosphodiesterase (Homo sapiens, UniProt O00408)
Assay: Inhibition of Human recombinant PDE2 (Phosphodiesterase 2)

By UniProt entry, the sequences of proteins in these tests, tags left out.
UniProt O00408, whole entry: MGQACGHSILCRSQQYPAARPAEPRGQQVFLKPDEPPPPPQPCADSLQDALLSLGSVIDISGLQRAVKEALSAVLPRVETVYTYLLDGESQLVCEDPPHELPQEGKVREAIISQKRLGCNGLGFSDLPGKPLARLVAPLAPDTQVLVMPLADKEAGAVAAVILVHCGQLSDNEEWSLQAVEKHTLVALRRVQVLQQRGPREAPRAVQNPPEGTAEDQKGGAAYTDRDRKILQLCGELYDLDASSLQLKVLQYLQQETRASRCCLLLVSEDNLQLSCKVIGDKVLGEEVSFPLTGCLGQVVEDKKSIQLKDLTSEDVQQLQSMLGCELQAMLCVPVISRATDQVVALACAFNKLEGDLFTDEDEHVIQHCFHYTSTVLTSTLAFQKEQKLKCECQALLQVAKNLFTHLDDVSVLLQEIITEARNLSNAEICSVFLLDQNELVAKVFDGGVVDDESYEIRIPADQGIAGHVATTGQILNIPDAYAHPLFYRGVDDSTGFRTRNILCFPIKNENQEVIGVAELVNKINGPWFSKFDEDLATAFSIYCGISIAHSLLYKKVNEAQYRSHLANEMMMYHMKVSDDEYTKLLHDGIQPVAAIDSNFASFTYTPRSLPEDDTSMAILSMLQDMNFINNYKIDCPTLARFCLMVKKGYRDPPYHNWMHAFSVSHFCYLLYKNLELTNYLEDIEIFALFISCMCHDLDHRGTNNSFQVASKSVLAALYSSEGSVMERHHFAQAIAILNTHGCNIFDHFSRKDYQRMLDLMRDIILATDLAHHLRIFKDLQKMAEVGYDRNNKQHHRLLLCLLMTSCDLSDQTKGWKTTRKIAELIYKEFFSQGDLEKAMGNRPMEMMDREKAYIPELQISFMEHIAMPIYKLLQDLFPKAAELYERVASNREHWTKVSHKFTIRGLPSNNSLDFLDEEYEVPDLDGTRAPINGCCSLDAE

Question: Which IC50 does the source give for CCCc1nn(C)c2c(=O)[nH]c(-c3cc(S(=O)(=O)N4CCN(C)CC4)ccc3OCC)nc12 here?
Answer: Its IC50 is > 10 µM.

Reference: ChEMBL document CHEMBL1145127 (J Med Chem, 2003)
